Assay type in all cases: cell-based
The target of experiment [1] is c-Jun N-terminal kinase, JNK (Homo sapiens) (UniProt P45983+P53779+P45984). In words: Effect on JNK1/2/3 phosphorylation at T183/Y185,T221/Y223 residue in human NCI-H1975 incubated for 12 hrs by human phosphokinase proteome profiler array relative to control.
Experiment [2] deals with Nitric oxide synthase 3 (Homo sapiens) (UniProt P29474). In words: Effect on eNOS at S1177 phosphorylation level in human NCI-H1975 incubated for 12 hrs by human phosphokinase proteome profiler array relative to control.
In experiment [3] the target is Serine/threonine-protein kinase mTOR (Homo sapiens) (UniProt P42345). In words: Effect on mTOR at S2448 phosphorylation level in human NCI-H1975 incubated for 12 hrs by human phosphokinase proteome profiler array relative to control.
Experiment [4] concerns the target Serine/threonine-protein kinase Chk2 (Homo sapiens) (UniProt O96017). As to the kind of experiment: Effect on CHK2 at T68 phosphorylation level in human NCI-H1975 incubated for 12 hrs by human phosphokinase proteome profiler array relative to control.
The target of experiment [5] is RPS6KA1/RPS6KA2/RPS6KA3 (Homo sapiens) (UniProt P51812+Q15349+Q15418). As to the kind of experiment: Effect on RSK1/2/3 at S380/S386/S377 phosphorylation level in human NCI-H1975 incubated for 12 hrs by human phosphokinase proteome profiler array relative to beta-catenin.
Experiment [6] has as its target Serine/threonine-protein kinase AKT (Homo sapiens) (UniProt P31751+Q9Y243+P31749). As to the kind of experiment: Effect on Akt1/2/3 at S473 phosphorylation level in human NCI-H1975 incubated for 12 hrs by human phosphokinase proteome profiler array relative to beta-catenin.
In experiment [7] the target is T1, Signal transducer and activator of transcription 5A (Homo sapiens) (UniProt P42229).
T1 sequence (whole entry): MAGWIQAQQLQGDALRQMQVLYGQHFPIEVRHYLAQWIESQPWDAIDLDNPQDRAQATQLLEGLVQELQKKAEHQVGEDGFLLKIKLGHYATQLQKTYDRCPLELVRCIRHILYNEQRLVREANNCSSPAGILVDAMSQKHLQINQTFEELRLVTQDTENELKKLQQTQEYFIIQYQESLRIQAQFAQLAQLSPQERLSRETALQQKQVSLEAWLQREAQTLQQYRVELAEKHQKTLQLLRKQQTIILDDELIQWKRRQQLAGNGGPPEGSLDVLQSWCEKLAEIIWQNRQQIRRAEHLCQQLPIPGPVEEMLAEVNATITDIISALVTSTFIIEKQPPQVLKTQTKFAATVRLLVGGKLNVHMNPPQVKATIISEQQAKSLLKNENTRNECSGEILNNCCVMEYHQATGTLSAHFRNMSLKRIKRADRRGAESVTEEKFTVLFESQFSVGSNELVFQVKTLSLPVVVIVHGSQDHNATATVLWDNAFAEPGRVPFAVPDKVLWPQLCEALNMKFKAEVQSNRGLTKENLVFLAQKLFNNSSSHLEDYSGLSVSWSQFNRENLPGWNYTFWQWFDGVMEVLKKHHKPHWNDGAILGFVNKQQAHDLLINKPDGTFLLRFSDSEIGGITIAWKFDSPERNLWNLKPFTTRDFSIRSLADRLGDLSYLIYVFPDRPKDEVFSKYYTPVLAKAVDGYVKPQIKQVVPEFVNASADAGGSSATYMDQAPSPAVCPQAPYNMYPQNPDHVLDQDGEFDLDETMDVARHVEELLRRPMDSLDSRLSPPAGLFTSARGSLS
In words: Effect on STAT5a at Y694 phosphorylation level in human NCI-H1975 incubated for 12 hrs by human phosphokinase proteome profiler array relative to beta-catenin.

By UniProt entry, the sequences of proteins in these tests, tags left out. Where a name states a change or a piece, a line headed by the entry shows the natural chain unless it says otherwise.
UniProt P45983: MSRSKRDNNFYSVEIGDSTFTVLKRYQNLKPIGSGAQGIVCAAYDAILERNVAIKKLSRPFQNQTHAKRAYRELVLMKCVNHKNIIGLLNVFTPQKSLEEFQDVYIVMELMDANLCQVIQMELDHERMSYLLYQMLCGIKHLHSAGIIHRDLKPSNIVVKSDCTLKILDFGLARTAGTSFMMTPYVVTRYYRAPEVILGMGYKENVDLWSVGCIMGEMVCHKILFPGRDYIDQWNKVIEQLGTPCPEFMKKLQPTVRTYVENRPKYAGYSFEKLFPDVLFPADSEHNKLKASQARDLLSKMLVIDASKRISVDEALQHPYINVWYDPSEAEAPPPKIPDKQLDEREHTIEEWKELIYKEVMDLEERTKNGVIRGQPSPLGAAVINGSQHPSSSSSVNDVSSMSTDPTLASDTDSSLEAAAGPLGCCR
UniProt P29474: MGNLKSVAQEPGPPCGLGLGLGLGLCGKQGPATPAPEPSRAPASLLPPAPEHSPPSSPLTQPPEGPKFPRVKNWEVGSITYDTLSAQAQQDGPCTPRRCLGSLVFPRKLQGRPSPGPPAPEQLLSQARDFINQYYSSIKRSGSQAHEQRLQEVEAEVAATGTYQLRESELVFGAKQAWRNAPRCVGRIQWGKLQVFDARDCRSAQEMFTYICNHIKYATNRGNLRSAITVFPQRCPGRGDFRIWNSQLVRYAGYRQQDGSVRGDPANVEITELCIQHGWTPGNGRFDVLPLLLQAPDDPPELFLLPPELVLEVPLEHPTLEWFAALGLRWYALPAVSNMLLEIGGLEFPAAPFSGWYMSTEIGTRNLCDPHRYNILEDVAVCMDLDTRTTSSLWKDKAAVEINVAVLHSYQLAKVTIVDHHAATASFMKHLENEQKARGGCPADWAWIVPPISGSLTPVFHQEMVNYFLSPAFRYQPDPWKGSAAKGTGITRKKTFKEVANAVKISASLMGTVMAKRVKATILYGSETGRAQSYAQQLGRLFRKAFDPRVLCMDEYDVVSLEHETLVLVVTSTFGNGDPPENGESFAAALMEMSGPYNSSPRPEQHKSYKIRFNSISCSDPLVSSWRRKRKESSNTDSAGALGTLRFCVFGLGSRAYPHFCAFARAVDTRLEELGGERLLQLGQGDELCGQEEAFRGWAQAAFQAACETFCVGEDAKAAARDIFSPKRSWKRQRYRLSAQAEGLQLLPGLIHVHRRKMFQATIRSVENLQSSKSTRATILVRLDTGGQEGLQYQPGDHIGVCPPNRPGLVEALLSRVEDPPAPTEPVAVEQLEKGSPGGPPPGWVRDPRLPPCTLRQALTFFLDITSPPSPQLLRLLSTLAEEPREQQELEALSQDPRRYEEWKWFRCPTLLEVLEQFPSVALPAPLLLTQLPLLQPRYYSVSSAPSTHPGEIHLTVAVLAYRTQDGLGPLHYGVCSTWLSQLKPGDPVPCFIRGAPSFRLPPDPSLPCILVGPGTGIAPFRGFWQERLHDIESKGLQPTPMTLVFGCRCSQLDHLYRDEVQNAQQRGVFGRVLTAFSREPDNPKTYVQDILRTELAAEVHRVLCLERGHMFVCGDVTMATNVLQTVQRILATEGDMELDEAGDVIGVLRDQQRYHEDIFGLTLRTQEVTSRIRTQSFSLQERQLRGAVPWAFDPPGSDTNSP
UniProt O96017, whole entry: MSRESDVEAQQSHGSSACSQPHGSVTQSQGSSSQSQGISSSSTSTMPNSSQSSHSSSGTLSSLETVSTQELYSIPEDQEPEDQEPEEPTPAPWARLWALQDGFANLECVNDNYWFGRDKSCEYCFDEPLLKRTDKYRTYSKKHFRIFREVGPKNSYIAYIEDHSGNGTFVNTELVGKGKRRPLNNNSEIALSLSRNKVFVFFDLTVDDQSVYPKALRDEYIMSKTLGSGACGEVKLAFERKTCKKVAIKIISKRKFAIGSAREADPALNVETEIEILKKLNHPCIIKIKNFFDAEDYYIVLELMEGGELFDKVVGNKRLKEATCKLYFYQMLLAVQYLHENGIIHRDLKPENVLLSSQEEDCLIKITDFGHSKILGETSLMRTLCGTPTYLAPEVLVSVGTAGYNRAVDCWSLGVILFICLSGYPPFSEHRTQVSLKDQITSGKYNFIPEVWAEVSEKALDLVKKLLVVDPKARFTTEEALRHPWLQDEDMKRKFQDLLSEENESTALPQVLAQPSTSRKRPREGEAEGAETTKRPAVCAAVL
UniProt P51812, whole entry, looked up: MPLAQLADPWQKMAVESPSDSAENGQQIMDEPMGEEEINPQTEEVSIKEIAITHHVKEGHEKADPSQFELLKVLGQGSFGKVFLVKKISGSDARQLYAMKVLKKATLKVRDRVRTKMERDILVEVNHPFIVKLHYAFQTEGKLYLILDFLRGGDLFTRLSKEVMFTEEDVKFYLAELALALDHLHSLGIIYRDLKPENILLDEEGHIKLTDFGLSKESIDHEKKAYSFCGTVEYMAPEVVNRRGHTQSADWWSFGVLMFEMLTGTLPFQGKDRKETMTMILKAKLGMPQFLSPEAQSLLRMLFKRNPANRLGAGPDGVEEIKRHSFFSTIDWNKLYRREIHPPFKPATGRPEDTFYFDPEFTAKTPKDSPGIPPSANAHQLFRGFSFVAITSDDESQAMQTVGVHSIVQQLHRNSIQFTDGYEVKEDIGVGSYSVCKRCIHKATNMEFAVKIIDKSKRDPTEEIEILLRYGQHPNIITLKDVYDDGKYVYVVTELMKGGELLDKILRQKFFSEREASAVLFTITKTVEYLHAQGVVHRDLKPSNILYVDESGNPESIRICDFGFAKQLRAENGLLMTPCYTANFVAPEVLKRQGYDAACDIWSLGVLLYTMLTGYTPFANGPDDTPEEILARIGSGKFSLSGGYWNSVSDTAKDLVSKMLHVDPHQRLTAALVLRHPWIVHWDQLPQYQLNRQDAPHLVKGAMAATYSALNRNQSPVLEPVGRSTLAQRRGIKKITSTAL
UniProt Q15349, whole entry, looked up: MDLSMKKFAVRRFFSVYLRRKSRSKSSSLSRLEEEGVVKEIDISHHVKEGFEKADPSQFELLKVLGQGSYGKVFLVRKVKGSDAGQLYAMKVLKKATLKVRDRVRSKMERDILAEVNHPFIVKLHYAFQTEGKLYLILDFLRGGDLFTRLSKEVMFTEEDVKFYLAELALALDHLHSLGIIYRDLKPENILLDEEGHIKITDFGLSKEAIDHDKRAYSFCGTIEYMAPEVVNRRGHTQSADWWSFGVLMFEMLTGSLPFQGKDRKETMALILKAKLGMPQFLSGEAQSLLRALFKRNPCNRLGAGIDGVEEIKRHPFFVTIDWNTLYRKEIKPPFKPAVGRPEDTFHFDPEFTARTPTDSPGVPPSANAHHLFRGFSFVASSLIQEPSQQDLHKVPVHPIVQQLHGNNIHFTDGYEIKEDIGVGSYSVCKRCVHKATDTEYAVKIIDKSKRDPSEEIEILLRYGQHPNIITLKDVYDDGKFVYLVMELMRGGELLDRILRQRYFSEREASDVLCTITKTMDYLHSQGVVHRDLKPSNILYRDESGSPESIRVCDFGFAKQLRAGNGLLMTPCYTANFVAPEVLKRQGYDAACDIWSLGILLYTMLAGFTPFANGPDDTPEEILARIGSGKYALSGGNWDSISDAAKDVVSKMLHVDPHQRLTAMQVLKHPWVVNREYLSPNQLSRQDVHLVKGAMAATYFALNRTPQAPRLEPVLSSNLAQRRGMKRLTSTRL
UniProt Q15418, whole entry, looked up: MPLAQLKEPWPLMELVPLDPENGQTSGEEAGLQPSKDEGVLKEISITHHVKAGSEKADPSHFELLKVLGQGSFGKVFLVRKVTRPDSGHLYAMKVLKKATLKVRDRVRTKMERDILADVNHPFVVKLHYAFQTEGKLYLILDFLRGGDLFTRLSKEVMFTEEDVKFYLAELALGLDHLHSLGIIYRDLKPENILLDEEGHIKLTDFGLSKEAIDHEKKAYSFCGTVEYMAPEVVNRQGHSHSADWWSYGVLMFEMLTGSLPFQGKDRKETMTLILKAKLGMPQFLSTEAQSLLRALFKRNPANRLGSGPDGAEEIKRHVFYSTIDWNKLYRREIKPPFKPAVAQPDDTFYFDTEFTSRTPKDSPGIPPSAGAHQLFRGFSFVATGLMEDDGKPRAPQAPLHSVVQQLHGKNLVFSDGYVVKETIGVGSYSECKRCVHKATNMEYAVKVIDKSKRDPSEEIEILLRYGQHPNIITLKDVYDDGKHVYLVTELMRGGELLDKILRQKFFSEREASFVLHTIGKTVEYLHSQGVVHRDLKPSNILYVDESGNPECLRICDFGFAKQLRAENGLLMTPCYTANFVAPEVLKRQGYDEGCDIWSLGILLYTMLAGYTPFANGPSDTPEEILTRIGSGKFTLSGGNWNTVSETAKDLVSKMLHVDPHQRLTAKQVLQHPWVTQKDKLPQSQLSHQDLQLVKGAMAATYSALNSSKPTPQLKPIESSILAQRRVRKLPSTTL
UniProt P31751: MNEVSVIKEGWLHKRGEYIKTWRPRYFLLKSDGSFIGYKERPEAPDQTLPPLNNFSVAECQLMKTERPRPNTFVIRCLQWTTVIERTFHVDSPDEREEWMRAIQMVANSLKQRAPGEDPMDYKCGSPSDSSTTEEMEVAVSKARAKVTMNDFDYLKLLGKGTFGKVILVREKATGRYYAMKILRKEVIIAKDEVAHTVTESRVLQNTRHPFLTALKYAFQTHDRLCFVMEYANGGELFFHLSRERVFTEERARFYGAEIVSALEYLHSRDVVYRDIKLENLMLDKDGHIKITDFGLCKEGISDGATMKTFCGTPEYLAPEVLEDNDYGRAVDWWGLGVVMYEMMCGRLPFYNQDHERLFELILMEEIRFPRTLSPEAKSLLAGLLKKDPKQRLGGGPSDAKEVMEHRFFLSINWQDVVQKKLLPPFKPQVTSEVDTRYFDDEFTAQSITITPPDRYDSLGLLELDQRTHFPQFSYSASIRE
UniProt Q9Y243: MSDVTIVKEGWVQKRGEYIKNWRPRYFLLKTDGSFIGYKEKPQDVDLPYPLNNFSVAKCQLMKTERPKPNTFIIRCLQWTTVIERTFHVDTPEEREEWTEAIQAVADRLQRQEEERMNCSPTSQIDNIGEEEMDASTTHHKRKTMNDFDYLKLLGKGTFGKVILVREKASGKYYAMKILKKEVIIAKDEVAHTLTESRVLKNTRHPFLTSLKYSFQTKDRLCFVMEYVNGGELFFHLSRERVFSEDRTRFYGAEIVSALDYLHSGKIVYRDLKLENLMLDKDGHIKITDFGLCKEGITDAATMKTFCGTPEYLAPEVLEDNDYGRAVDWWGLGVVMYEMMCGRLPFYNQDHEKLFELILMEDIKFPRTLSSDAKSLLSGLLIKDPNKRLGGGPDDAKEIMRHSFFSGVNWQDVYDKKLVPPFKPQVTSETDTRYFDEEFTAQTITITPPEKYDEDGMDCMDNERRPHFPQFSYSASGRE
UniProt P31749: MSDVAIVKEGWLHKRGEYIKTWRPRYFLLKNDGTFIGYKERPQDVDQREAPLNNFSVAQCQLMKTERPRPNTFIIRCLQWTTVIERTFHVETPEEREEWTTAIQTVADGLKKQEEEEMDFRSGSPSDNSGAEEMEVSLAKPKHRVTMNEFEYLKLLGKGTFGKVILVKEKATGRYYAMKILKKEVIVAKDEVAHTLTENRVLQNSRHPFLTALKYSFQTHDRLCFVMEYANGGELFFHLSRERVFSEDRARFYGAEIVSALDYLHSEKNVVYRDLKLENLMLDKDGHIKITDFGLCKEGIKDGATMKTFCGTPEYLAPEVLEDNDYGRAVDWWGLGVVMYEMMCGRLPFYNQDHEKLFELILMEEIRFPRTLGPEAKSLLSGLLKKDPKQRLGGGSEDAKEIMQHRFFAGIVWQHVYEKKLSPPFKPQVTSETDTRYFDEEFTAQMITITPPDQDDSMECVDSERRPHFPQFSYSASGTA
UniProt P23443: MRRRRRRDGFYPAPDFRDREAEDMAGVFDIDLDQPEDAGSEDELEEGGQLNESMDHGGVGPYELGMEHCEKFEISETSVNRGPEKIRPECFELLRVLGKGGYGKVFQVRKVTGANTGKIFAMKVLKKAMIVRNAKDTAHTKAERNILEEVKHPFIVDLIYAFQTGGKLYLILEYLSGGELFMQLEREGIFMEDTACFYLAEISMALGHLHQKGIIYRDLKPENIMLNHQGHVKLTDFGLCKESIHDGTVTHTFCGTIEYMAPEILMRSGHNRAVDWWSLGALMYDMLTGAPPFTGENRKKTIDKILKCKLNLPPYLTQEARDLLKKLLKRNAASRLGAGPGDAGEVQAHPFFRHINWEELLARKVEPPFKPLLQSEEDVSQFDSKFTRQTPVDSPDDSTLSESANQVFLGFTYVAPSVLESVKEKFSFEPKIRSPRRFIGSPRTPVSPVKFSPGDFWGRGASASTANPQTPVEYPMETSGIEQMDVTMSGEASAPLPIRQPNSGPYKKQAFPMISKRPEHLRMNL

For experiment [8], the target named is Ribosomal protein S6 kinase beta-1 (Homo sapiens) (UniProt P23443). As to the kind of experiment: Effect on p70S6 Kinase at T389 phosphorylation level in human NCI-H1975 incubated for 12 hrs by human phosphokinase proteome profiler array relative to beta-catenin.

The structures appear in SMILES notation.

Regarding `CCOc1ccc(-c2nc(/C(N)=N/O)c3[nH]c(=O)n(-c4ccccc4OC)c3n2)cc1`, the fold change (FC) in experiment [1] worked out at 0.74; in experiment [2] it was 1.02; in experiment [3], 0.86; in experiment [4], 0.73; in experiment [5] it was 1.81; in experiment [6], 0.79. For the same compound, the fold change (FC) in experiment [7] is 0.91; in experiment [8], 1.7.

In the case of `CCOc1ccc(-c2nc(C(=O)NO)c3[nH]c(=O)n(-c4ccccc4OC)c3n2)cc1`, the fold change (FC) in experiment [1] turned out to be 0.82; in experiment [2], 0.74; in experiment [3], 0.73; in experiment [4], 0.87; in experiment [5], 1.17; in experiment [6] it was 0.61. Besides, the fold change (FC) in experiment [7] came out at 0.75; in experiment [8], 1.04.

For the origin of these results see ChEMBL document CHEMBL4359863, “Structure-guided development of purine amide, hydroxamate, and amidoxime for the inhibition of non-small cell lung cancer” (Eur J Med Chem, 2019).
